Amino acid sequences for entries named in this document (tags omitted).
UniProt P26684, whole entry: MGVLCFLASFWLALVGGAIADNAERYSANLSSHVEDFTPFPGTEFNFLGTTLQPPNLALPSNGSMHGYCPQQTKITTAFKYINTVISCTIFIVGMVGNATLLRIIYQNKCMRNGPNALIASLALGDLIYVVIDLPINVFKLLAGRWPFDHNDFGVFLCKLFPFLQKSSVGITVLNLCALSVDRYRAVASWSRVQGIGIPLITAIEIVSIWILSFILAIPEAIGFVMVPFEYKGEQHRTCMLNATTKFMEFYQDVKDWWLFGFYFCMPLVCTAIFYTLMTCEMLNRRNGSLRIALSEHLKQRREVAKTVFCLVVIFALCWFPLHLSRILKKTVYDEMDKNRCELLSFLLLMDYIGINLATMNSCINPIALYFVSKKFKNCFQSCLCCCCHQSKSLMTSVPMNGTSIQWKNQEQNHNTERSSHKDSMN

According to ChEMBL document CHEMBL1133280, “Discovery and synthesis of a potent sulfonamide ET(B) selective antagonist” (Bioorg Med Chem Lett, 2000):

Biological target: Endothelin-1 receptor (Rattus norvegicus, UniProt P26684)
Assay: Displacement of [125 I] ET-1 from rat aortic smooth muscle A7r5 cells transfected with Endothelin A receptor
Type: cell-based

## Cc1cc(NS(=O)(=O)c2ccc(N)cc2)no1 [SULFAMETHOXAZOLE]
  IC50: 333 µM
